Experimental data from ChEMBL document CHEMBL5365545, “Synthesis and Optimization of 1-Substituted Imidazo[4,5-c]quinoline TLR7 Agonists” (ACS Med Chem Lett, 2023).

Assays:
Format in all cases: cell-based
[1] = target: T1, Toll-like receptor 7 (Mus musculus) (UniProt P58681); assay: Agonist activity at TLR7 in mouse RAW264.7 cells assessed as increase in NFkappaB activation; conditions: filed as agonist
T1 sequence (whole entry): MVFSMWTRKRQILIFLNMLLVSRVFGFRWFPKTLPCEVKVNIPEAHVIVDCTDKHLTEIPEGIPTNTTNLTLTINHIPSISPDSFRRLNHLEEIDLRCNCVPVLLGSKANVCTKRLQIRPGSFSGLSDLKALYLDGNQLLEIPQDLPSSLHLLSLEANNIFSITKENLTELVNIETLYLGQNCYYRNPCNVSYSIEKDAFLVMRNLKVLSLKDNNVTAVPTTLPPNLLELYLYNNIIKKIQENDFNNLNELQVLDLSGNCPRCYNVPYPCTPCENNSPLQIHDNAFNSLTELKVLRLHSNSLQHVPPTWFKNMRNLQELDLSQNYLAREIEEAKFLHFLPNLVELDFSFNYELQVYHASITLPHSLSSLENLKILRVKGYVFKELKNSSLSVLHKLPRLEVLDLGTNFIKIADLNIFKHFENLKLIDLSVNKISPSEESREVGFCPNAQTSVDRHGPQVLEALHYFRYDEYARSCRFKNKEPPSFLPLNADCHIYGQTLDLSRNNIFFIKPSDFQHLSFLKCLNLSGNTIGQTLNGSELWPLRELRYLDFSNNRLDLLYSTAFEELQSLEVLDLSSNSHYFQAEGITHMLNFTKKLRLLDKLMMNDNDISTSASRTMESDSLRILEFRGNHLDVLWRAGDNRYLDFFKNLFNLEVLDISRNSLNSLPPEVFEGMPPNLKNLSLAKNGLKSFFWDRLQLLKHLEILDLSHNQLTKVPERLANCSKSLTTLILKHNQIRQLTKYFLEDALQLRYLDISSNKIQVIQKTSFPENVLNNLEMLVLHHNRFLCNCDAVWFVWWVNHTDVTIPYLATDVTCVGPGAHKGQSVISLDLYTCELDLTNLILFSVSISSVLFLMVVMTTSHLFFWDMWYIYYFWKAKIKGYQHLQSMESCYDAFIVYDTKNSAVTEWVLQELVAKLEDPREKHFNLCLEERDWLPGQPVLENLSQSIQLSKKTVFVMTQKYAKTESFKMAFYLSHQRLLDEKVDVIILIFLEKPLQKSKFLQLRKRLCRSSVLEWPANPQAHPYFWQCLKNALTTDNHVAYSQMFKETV

[2] = target: T2, Toll-like receptor 8 (Homo sapiens) (UniProt Q9NR97); assay: Agonist activity at TLR8 in HEK-Blue hTLR8 cells assessed as increase in NFkappaB activation at below 10 uM
T2 sequence (whole entry): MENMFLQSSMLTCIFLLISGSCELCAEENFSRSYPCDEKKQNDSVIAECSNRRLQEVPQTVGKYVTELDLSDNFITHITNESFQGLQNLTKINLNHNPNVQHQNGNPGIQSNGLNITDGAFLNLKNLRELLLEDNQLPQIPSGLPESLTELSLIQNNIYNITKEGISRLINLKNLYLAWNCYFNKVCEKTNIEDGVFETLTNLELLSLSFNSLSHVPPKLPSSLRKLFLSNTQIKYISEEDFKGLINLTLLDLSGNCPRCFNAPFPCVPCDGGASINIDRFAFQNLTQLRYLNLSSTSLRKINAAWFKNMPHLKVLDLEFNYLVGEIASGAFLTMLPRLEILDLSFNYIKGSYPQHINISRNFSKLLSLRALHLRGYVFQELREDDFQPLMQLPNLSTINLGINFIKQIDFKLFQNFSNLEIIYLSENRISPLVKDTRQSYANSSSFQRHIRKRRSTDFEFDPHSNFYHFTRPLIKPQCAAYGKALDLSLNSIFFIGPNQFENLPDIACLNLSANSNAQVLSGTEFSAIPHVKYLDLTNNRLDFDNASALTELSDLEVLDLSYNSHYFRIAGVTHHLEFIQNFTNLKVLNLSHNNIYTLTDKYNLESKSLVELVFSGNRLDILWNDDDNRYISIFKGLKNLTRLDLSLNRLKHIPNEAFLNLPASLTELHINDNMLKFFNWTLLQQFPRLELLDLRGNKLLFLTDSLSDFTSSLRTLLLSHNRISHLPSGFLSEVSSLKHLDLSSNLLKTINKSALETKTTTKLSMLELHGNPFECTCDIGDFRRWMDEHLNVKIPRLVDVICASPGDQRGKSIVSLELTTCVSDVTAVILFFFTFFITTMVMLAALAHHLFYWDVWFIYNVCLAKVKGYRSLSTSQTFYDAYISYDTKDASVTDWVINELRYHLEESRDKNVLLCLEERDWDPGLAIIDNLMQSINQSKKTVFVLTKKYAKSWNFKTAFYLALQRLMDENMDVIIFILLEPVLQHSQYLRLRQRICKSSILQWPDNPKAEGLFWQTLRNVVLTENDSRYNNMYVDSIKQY

[3] = target: T2, Toll-like receptor 8 (Homo sapiens); assay: Agonist activity at TLR8 in GM-CSF induced human MDM cells assessed as increase in TNFalpha release at 2000 nM measured after 6 hrs; conditions: filed as agonist

Activity [1] | Activity [2] | Activity [3] | SMILES
Active |  |  | CCCCc1nc2c(N)nc3ccccc3c2n1Cc1ccc(NC(=O)OC(C)C)cc1
Active |  |  | CCCCC(=O)Nc1ccc(Cn2c(CCCC)nc3c(N)nc4ccccc4c32)cc1
Active | inactive | Active | CCCCc1nc2c(N)nc3ccccc3c2n1Cc1ccc(NC(=O)CCNC(=O)OC(C)(C)C)cc1

Activity calls are given as the source filed them. The rule behind the calls is not given here.
